Results published in US20240254119A1 (THIRD HARMONIC BIO, INC., priority 2022, published 2024).

Amino acid sequences for entries named in this document (tags omitted). Residues count along the entry.
UniProt P10721, 26-976 limits assumed: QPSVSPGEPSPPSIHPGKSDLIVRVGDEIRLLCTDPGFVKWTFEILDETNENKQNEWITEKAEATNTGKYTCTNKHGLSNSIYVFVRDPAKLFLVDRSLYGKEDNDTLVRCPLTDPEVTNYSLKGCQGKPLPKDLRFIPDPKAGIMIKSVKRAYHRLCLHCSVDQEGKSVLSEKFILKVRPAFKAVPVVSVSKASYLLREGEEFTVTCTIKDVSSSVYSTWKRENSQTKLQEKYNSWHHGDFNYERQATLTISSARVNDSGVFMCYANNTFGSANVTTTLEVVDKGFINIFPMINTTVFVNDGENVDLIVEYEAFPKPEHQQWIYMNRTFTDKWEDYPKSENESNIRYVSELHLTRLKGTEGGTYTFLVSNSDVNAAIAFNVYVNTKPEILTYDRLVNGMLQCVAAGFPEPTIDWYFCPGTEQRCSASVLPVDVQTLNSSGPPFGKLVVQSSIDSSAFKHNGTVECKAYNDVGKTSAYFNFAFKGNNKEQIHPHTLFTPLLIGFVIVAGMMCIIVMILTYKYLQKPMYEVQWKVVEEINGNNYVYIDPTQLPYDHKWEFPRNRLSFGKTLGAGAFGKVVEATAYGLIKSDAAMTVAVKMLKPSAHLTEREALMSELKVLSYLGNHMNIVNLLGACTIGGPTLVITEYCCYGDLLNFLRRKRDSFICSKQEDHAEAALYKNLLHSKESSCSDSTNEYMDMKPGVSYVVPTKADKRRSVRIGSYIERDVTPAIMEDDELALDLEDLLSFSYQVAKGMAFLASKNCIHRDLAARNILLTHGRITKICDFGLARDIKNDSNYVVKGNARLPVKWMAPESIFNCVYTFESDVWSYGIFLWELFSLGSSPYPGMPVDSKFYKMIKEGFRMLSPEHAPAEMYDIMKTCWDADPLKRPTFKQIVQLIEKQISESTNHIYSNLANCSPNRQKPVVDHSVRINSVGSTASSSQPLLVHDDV

Target: wtKIT (Homo sapiens, UniProt P10721)
Test: HTRF biochemical assay, wtKIT (phosphorylation of a peptide substrate)
Conditions: read-out: KIT Biochemical IC50 avg, Table 4

SMILES	IC50 [nM]
Cc1ccc(-c2noc(C[C@H](O)C(F)F)n2)cc1NC(=O)c1cnc2cc(COCCN(C)C)ccn12	50 to 500
Cc1ccc(-c2noc(C[C@H](C)O)n2)cc1NC(=O)c1cnc2cc(C(C)(F)F)ccn12	50 to 500
CC[C@@H](O)Cc1nc(-c2ccc(C)c(NC(=O)c3cnc4cc(COC)ccn34)c2)no1	< 50
Cc1ccc(-c2noc([C@H]3C[C@@H](O)C3)n2)cc1NC(=O)c1cnc2cc(Cl)ccn12 (relative stereo)	50 to 500
Cc1ccc(-c2noc([C@@H]3CCCN3)n2)cc1NC(=O)c1cnn2cc(-c3ccn(C)n3)ccc12	< 50
COCc1ccn2c(C(=O)Nc3cc(-c4noc(-c5ccccc5)n4)ccc3C)cnc2c1	< 50
Cc1ccc(-c2noc(CCC(C)(O)C(F)(F)F)n2)cc1NC(=O)c1cnc2ccccn12 (stereo not shown)	50 to 500
Cc1ccc(-c2noc(N3CC[C@@H](O)C3)n2)cc1NC(=O)c1cnc2cc(Cl)ccn12	50 to 500
Cc1ccc(-c2noc(C[C@H](O)C(F)F)n2)cc1NC(=O)c1cnc2cc(COCCN)ccn12	< 50
Cc1ccc(-c2noc([C@H]3C[C@@H]3F)n2)cc1NC(=O)c1cnc2cc3c(cn12)OC(C)(C)C3	< 50
Cc1ccc(-c2noc([C@H]3C[C@@H]3F)n2)cc1NC(=O)c1cnc2cc(OC(C)C(F)(F)F)ccn12 (single isomer, unassigned)	50 to 500
Cc1ccc(-c2noc(CC3CCCO3)n2)cc1NC(=O)c1cnc2cc(-c3cn(C)cn3)ccn12 (stereo not shown)	< 50
Cc1ccc(-c2noc(CC(O)C(F)F)n2)cc1NC(=O)c1cnc2cc(COCC(C)(C)O)ccn12 (single isomer, unassigned)	< 50
Cc1ccc(-c2noc(C3CC(O)C3)n2)cc1NC(=O)c1cnc2cc(-c3ccn(C)n3)ccn12 (single isomer, unassigned)	< 50
Cc1ccc(-c2noc(C[C@H]3CCCO3)n2)cc1NC(=O)c1cnc2cc(COCC3(O)CC3)ccn12	< 50
Cc1ccc(-c2noc([C@H]3C[C@@H]3F)n2)cc1NC(=O)c1cnc2cc(CCO)ccn12	50 to 500
CCc1cn2c(C(=O)Nc3cc(-c4noc(N5CC(F)(F)C5)n4)ccc3C)cnc2cc1Cl	50 to 500

SMILES	IC50 [nM]
Cc1ccc(-c2noc(C3CCCC3O)n2)cc1NC(=O)c1cnc2ccccn12 (stereo not shown)	50 to 500
Cc1ccc(-c2noc([C@H]3C[C@@H]3F)n2)cc1NC(=O)c1cnc2n1CC(C)(C)CC2	50 to 500
Cc1ccc(-c2noc(N3CC[C@H](O)C3)n2)cc1NC(=O)c1cnc2cc(Cl)ccn12	50 to 500
Cc1ccc(-c2noc([C@H]3C[C@@H]3F)n2)cc1NC(=O)c1cnn2cc(CCOCC(C)(C)O)ccc12	500 to 5000
Cc1ccc(-c2noc(CC[C@@](C)(O)C(F)F)n2)cc1NC(=O)c1cnc2ccccn12	< 50
COCc1ccn2c(C(=O)Nc3cc(-c4noc(C[C@H](C)O)n4)ccc3C)cnc2c1	< 50
Cc1ccc(-c2noc(CC(O)C(F)F)n2)cc1NC(=O)c1cnc2cc(COCCO)ccn12 (single isomer, unassigned) [Compound I-511]	50 to 500
Cc1ccc(-c2noc([C@H]3C[C@@H]3F)n2)cc1NC(=O)c1cnn2c(F)cccc12	50 to 500
Cc1nc(-c2ccc(C)c(NC(=O)c3cnc4cc(COCC(C)(C)O)ccn34)c2)no1	50 to 500
Cc1ccc(-c2noc([C@H]3C[C@@H]3F)n2)cc1NC(=O)c1cnc2cc3c(cn12)CC(C)(C)O3	50 to 500
CC[C@@H](O)Cc1nc(-c2ccc(C)c(NC(=O)c3cnc4cc(-c5cscn5)ccn34)c2)no1	< 50
CC[C@@H](O)Cc1nc(-c2ccc(C)c(NC(=O)c3cnc4cc(-c5ccn(C)n5)ccn34)c2)no1	< 50
Cc1ccc(-c2noc([C@H]3C[C@@H]3F)n2)cc1NC(=O)c1cnc2ccc(C(=O)N3CCCC3)cn12	50 to 500
Cc1ccc(-c2noc(C[C@@H](C)O)n2)cc1NC(=O)c1cnc2cc(C(C)(F)F)ccn12	50 to 500
Cc1ccc(-c2noc(CC3(O)CC3)n2)cc1NC(=O)c1cnc2cc(F)ccn12	50 to 500
Cc1ccc(-c2noc(N3CC[C@H](O)C3)n2)cc1NC(=O)c1cnc2cc(-c3ccn(C)n3)ccn12	< 50
Cc1ccc(-c2noc(N3CCC(O)C3)n2)cc1NC(=O)c1cnc2cc(Cl)ccn12 (stereo not shown)	50 to 500

Now from value to compound:

IC50 [nM]	SMILES
50 to 500	Cc1ccc(-c2noc([C@@H]3CC(F)(F)CN3)n2)cc1NC(=O)c1cnn2cc(F)ccc12
< 50	Cc1ccc(-c2noc(C3CCN3)n2)cc1NC(=O)c1cnn2cc(-c3ccn(C)n3)ccc12 (stereo not shown)
< 50	Cc1ccc(-c2noc(C[C@H]3CCCO3)n2)cc1NC(=O)c1cnc2cc(-c3cscn3)ccn12
50 to 500	Cc1ccn2c(C(=O)Nc3cc(-c4noc(CC(O)(O)C(F)(F)F)n4)ccc3C)cnc2c1
50 to 500	Cc1ccc(-c2noc([C@H]3C[C@@H]3F)n2)cc1NC(=O)c1cnc2cc(COCC(O)C(F)(F)F)ccn12 (single isomer, unassigned)
50 to 500	COCCOCC1CCn2c(C(=O)Nc3cc(-c4noc(C5CC5F)n4)ccc3C)cnc2C1 (stereo not shown)
50 to 500	Cc1ccc(-c2noc([C@H]3C[C@@H]3F)n2)cc1NC(=O)c1cnc2c(F)c(OC(C)C)ccn12
< 50	Cc1ccc(-c2noc(CC3CCCO3)n2)cc1NC(=O)c1cnc2cc(Cl)ccn12 (single isomer, unassigned)
50 to 500	Cc1ccc(-c2noc(C3CC3F)n2)cc1NC(=O)c1cnc2n1CCC(C)C2 (stereo not shown)
< 50	Cc1ccc(-c2noc([C@@H]3CC4(CC4)CN3)n2)cc1NC(=O)c1cnc2cc(C(C)(F)F)ccn12
50 to 500	Cc1nc(-c2ccc(C)c(NC(=O)c3cnc4cc(C(C)(F)F)ccn34)c2)no1
< 50	Cc1ccc(-c2noc([C@H]3C[C@@H]3F)n2)cc1NC(=O)c1cnn2cc(COCCO)ccc12
< 50	Cc1ccc(-c2noc([C@H]3C[C@@H]3F)n2)cc1NC(=O)c1cnc2cc(COCCO)c(F)cn12
50 to 500	Cc1ccc(-c2noc([C@H]3C[C@@H]3F)n2)cc1NC(=O)c1cnc2cc(C(C)(F)F)c(F)cn12
< 50	CC[C@H](O)Cc1nc(-c2ccc(C)c(NC(=O)c3cnc4cc(-c5ccn(C)n5)ccn34)c2)no1
50 to 500	Cc1ccn2c(C(=O)Nc3cc(-c4noc(C(O)(O)C(F)(F)F)n4)ccc3C)cnc2c1
50 to 500	Cc1ccc(-c2noc(C[C@H](O)C(F)F)n2)cc1NC(=O)c1cnc2cc(COC(C)(C)CO)ccn12
500 to 5000	Cc1ccn2c(C(=O)Nc3cc(-c4noc(CC(O)(O)C(F)F)n4)ccc3C)cnc2c1
50 to 500	Cc1ccc(-c2noc([C@@H]3CC(F)(F)CN3)n2)cc1NC(=O)c1cnn2cc(Cl)ccc12
50 to 500	Cc1ccn2c(C(=O)Nc3cc(-c4noc(C)n4)ccc3C)cnc2c1
50 to 500	Cc1ccc(-c2noc(N3CC(F)(F)C3)n2)cc1NC(=O)c1cnc2cc(Cl)c(F)cn12
500 to 5000	CNC(C)(C)COCc1ccn2c(C(=O)Nc3cc(-c4noc(C[C@H](O)C(F)F)n4)ccc3C)cnc2c1
< 50	CCC(O)Cc1nc(-c2ccc(C)c(NC(=O)c3cnc4cc(OCCCN5CCCC5)ccn34)c2)no1 (single isomer, unassigned)
< 50	Cc1ccc(-c2noc(C[C@H]3CCCO3)n2)cc1NC(=O)c1cnc2cc(-c3cn(C)cn3)ccn12

IC50 [nM]	SMILES
< 50	Cc1ccc(-c2noc(C3CCN3)n2)cc1NC(=O)c1cnc2cc(-c3cscn3)ccn12 (stereo not shown)
< 50	Cc1ccc(-c2noc(N3CCC(O)C3)n2)cc1NC(=O)c1cnc2cc(-c3ccn(C)n3)ccn12 (stereo not shown)
< 50	Cc1ccc(-c2noc(-c3ccccn3)n2)cc1NC(=O)c1cnc2cc(COCCO)ccn12
< 50	Cc1ccc(-c2noc(N3CC[C@@H](O)C3)n2)cc1NC(=O)c1cnc2cc(-c3ccn(C)n3)ccn12
< 50	CC[C@@H](O)Cc1nc(-c2ccc(C)c(NC(=O)c3cnc4cc(-c5cn(C)cn5)ccn34)c2)no1
50 to 500	Cc1ccn2c(C(=O)Nc3cc(-c4noc(C(O)C(F)(F)F)n4)ccc3C)cnc2c1 (stereo not shown)
< 50	Cc1ccc(-c2noc(C3CCN3)n2)cc1NC(=O)c1cnc2cc(C(C)(F)F)ccn12 (stereo not shown)
50 to 500	[2H]C([2H])c1nc(-c2ccc(C)c(NC(=O)c3cnc4ccccn34)c2)no1
< 50	Cc1ccc(-c2noc(CC3(O)CC3)n2)cc1NC(=O)c1cnc2cc(Cl)ccn12
< 50	Cc1ccc(-c2noc([C@H](C)O)n2)cc1NC(=O)c1cnn2cc(-c3cscn3)ccc12
< 50	Cc1ccc(-c2noc(C[C@@H](C)O)n2)cc1NC(=O)c1cnc2cc(OCCCN3CCCC3)ccn12
< 50	CC[C@H](O)Cc1nc(-c2ccc(C)c(NC(=O)c3cnc4cc(-c5cscn5)ccn34)c2)no1
50 to 500	Cc1ccn2c(C(=O)Nc3cc(-c4noc(CC(O)C(F)F)n4)ccc3C)cnc2c1 (stereo not shown)
< 50	Cc1ccc(-c2noc(C[C@@H]3CCCO3)n2)cc1NC(=O)c1cnc2cc(-c3cscn3)ccn12
50 to 500	Cc1ccc(-c2noc([C@H]3C[C@@H]3F)n2)cc1NC(=O)c1cnc2ccc(C(=O)N(C)C)cn12
50 to 500	Cc1ccc(-c2noc(CC(C)(O)C(F)(F)F)n2)cc1NC(=O)c1cnc2ccccn12 (stereo not shown)
500 to 5000	Cc1ccc(-c2noc([C@@H](O)CO)n2)cc1NC(=O)c1cnc2cc(Cl)ccn12
< 50	Cc1ccc(-c2noc(C[C@H]3CCCO3)n2)cc1NC(=O)c1cnc2cc(COCC(C)(C)O)ccn12
< 50	Cc1ccc(-c2noc(C[C@@H]3CCCO3)n2)cc1NC(=O)c1cnc2cc(-c3cn(C)cn3)ccn12
50 to 500	Cc1ccc(-c2noc(C3CC(C)N3)n2)cc1NC(=O)c1cnc2cc(F)ccn12 (single isomer, unassigned)
50 to 500	Cc1ccc(-c2noc([C@H]3C[C@H](O)C3)n2)cc1NC(=O)c1cnc2cc(Cl)ccn12 (relative stereo)
500 to 5000	CC(=O)NCC(O)Cc1nc(-c2ccc(C)c(NC(=O)c3cnc4ccccn34)c2)no1 (stereo not shown)
50 to 500	Cc1nc(-c2ccc(C)c(NC(=O)c3cnn4cc(COCC5(O)CC5)ccc34)c2)no1
50 to 500	Cc1ccc(-c2noc(C3CC3F)n2)cc1NC(=O)c1cnc2n1CCC(COCCO)C2 (stereo not shown)
